Measurements as given in ChEMBL document CHEMBL4190373, “Tumor Targeting with Novel Pyridyl 6-Substituted Pyrrolo[2,3- d]Pyrimidine Antifolates via Cellular Uptake by Folate Receptor α and the Proton-Coupled Folate Transporter and Inhibition of De Novo Purine Nucleotide Biosynthesis” (J Med Chem, 2018).
Active and inactive are the calls of the source. The calls are words filed in the database; no cut-off is given here.

Amino acid sequences for entries named in this document (tags omitted). A change or cut given only in a name is not applied to a line headed by its entry.
UniProt P14207: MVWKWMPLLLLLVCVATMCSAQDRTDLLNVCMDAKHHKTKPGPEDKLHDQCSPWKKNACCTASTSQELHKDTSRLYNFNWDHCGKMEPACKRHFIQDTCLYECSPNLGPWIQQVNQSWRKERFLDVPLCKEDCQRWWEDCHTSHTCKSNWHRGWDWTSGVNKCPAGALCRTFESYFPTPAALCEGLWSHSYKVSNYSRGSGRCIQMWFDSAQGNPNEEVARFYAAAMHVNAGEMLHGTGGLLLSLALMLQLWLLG

Biological target: Folate receptor beta (Homo sapiens) (UniProt P14207)
Experiment: Displacement of [3H]folic acid from human FR-beta receptor expressed in Chinese hamster D4 cells measured after 15 mins
Assay type: cell-based

Q: How did the inhibition turn out when `Nc1nc2[nH]c(CCCCc3ccc(C(=O)N[C@@H](CCC(=O)O)C(=O)O)nc3)cc2c(=O)[nH]1` was run?
A: Active
